## Binding of CDR-mutated scFvs to a peptide of the spike HR2 region

Source: Engelhart et al. 2022 (doi:10.1038/s41597-022-01779-4), MIT Lincoln Laboratory and A-Alpha Bio; data file from the FLAb repository.

Antigen: PDVDLGDISGINAS, a 14-residue peptide of the SARS-CoV-2 spike HR2 region.

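Variants in AAYL52 differ from the parent at up to three CDR positions; double and triple changes were sampled at random. AlphaSeq pools MATa yeast showing the antibodies with MATalpha yeast showing the peptide. Mating (16 h, 30 °C) was followed by selection of diploids and sequencing of their barcodes. Scores were corrected for input abundance and mapped to Kd with protein pairs of known affinity run in the same pool. Mating was done three times.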

Each scFv is VH, a 15-residue (Gly4Ser)3 linker, VL, as in the parent Ab-95, and differs from it in the CDRs of the light chain only.
VH: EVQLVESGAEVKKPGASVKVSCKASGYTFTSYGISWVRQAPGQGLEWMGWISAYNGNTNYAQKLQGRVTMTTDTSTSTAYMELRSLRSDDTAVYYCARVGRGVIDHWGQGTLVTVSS
VL: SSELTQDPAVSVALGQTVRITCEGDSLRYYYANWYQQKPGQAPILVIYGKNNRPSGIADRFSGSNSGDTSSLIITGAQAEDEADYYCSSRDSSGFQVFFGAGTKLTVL

Changes read parent residue, position, new residue, counted from the first residue of the VL shown.
This list gathers variants with a substitution at R90 (VL, numbered from residue 1).
Kd is apparent (estimated from mating counts) and averaged on the log scale over replicates with a signal. Smaller is tighter.
"nd" marks a missing value. The strain was present, yet no cells mated with the target were sequenced in any replicate, which points to weak or no binding.
Empty control strains, which show no peptide, gave a signal in 28% of pairings with library AAYL52; the median was 8.2 µM and 95% of these signals were weaker than 800 nM. No background was subtracted.

- S26G+S88F+R90T -> 7.0 µM (3 of 3 replicates)
- P54W+R90V -> 6.2 µM (2 of 3 replicates)
- Y31S+R90G+Q96W -> 72 nM (3 of 3 replicates)
- Y29A+R90K -> 180 nM (3 of 3 replicates)
- R90T+V97P+F98H -> 130 µM (1 of 3 replicates)
- D25G+R90W -> 230 nM (3 of 3 replicates)
- S26Y+N52M+R90C -> 130 nM (1 of 3 replicates)
- R90Q+F95S+Q96F -> 1.6 µM (1 of 3 replicates)
- E23Y+R90D+F98P -> 1.4 µM (3 of 3 replicates)
- S26T+R90S+D91P -> 3.8 µM (2 of 3 replicates)
- Y30S+P54F+R90M -> 44 nM (3 of 3 replicates)
- R28E+K50W+R90S -> 15 µM (3 of 3 replicates)
- Y31I+R90D+V97I -> 16 µM (3 of 3 replicates)
- K50L+N51D+R90T -> 1.9 µM (2 of 3 replicates)
- A32R+R90K+D91V -> 4.1 µM (2 of 3 replicates)
- R28A+R90D+F98C -> 680 nM (3 of 3 replicates)
- D25H+R90N+F95T -> 180 nM (3 of 3 replicates)
- R28M+K50M+R90I -> 17 µM (3 of 3 replicates)
- S26G+R90V+F98R -> 1.6 µM (2 of 3 replicates)
- S89Y+R90G -> 650 nM (3 of 3 replicates)
- S55T+R90V+F98E -> 390 nM (3 of 3 replicates)
- Y30H+S55R+R90Y -> 96 nM (3 of 3 replicates)
- Y30Q+R90S+Q96M -> 29 nM (3 of 3 replicates)
- Y29L+S89R+R90I -> 5.6 µM (1 of 3 replicates)
- S89P+R90P+F98L -> 87 µM (2 of 3 replicates)
- G24P+R90I -> 4.8 µM (2 of 3 replicates)
- N51T+N52L+R90H -> 17 µM (2 of 3 replicates)
- A32L+S88W+R90A -> 11 µM (1 of 3 replicates)
- L27K+R90A -> 10 µM (1 of 3 replicates)
- G24F+R90P+F95H -> 6.3 µM (2 of 3 replicates)
- G24A+Y30W+R90L -> nd (0 of 3 replicates)
- G49Q+R53P+R90W -> nd (0 of 3 replicates)
- L27M+R90M+S93G -> 14 µM (3 of 3 replicates)

Top 3 of the variants detected in all replicates, tightest first:

changes,Kd,detected
Y30Q+R90S+Q96M,29 nM,3 of 3
Y30S+P54F+R90M,44 nM,3 of 3
Y31S+R90G+Q96W,72 nM,3 of 3

Parent in this assay: reference entry 200 nM, copy in this library 180 nM.